Results reported in patent US20230406906A1, “SERPIN PEPTIDES AND METHODS OF USING THE SAME” (SERPIN PHARMA, LLC, priority 2022, published 2023).

Legend:
TLR4 = experiment: Immunoblot of injured sciatic nerve two days after PNL, TLR4; assay type: in vivo, mice; conditions: 2 μg/g
Protocol: (§1) Neuropathic pain model: Mice (n=30) were randomly assigned to two different groups: SP163M (2 μg/g; s.c. 100 μl) and vehicle (H20 s.c. 100 μl). Mice were treated 1 h prior to partial nerve ligation (PNL) and then daily at least 1 h prior to behavior testing for 2 weeks. PNL studies were performed as previously disclosed^59 and adapted for mice.^57 Male mice were anesthetized with 3% isoflurane (Vetone, USA) in 1.5 L/min oxygen (Praxair, USA) and maintained with 2.5% isoflurane. An incision was made along the long axis of the femur. […] Filaments were presented in a consecutive fashion either ascending or descending using the up-down method as previously disclosed^60 and modified for mice.^57,61 The filament that caused paw withdrawal 50% of the time (the 50% PWT) was determined. […]
(§2) Immunoblots of sciatic nerve: Sciatic nerves were harvested 2 days after PNL to identify early molecular and cellular changes. […] Nerves were lysed in RIPA buffer and equal amounts of protein (20 μg) from nerves lysates, as determined by BCA Protein Assay (Bio-Rad, Hercules, CA, USA), were subjected to 10% SDS-PAGE and electro-transferred to nitrocellulose membranes. […] Primary antibodies were detected with HRP-conjugated species-specific secondary antibodies (Cell Signaling Technology, Danvers, MA, USA; cat #7076S or 4S; 1:5000). […]

TSLP = experiment: Poly IC induced TSLP in HaCat cells (ELISA); assay type: cell-based, human; conditions: Poly IC 50 μg/ml 24 hours, 100 μg/ml pretreatment
Protocol: (§3) Cells were pretreated with either vehicle or SP163M (100 μg/ml). TSLP was measured in the supernatant via ELISA (p=0.0045 vs. vehicle treated Poly IC induced cells). FIG. 10B: HaCat cells treated as in FIG. 10A were analyzed via the CellTiter-Glo® Luminescent Cell Viability Assay by Promega. The percent change from untreated (no Poly IC) cells were compared between SP163M vs. vehicle treated poly IC induced control (p=0.0068). FIG. 10C: HaCat cells were insulted with TNFα and immunoblotted for phospho-IkBa (Ser32). GAPDH served as a loading control and signal normalization.
(§4) In this model of dermal inflammation, SP163M decreased a key cytokine (TSLP) that controls allergic responses, and protected cells from death.

CD11b [1] = experiment: Immunoblot of injured sciatic nerve two days after PNL, CD11b; assay type: in vivo, mice; conditions: 2 μg/g, vs vehicle
Protocol: as §1, §2

[2] = Phase I and Phase IIa clinical trials; assay type: in vivo; conditions: Phase I and ongoing Phase IIa clinical trials
C57BL6 mice = experiment: Intraplantar formalin test; assay type: in vivo
Protocol: Intraplantar formalin and capsaicin models: Male mice (n=33) were acclimated to the behavior testing facility for at least 60 min. Mice were randomized into four groups SP163M (0.02, 0.2, and 2 μg/g) or vehicle were administered subcutaneously. After 1 h, 20 μl of 2.5% formalin was injected subcutaneously into the plantar area of left hind paw. Immediately after formalin injection, mice were placed in a Plexiglas box (22×22×14 cm). Two observers, blinded to treatments, recorded the total amount of time mice spent on licking and flinching the left hind paw every 5 min over a one-hour period. To quantify the formalin response, activity during early phase (0-10 min) and later phase (15-50 min) were examined separately.

CD11b [3] = experiment: Immunohistochemistry of L4 DRGs two days after PNL, CD11b; assay type: in vivo, mice
Protocol: as §1, with “femur. The sciatic nerve was exposed at mid-thigh level by separating the biceps femoris and the gluteus superficialis and then carefully cleared of surrounding connective tissue. A 9-0 nylon suture (Ethicon, Inc., Somerville, NJ, USA) was inserted into the nerve and ligated so that the one-third to one-half of the nerve was included. The muscle and skin layers were closed using Reflex7 7 mm stainless steel wound clips (CellPoint Scientific, Inc., Gaithersburg, MD, USA). For behavior testing, mice were acclimated, and baseline tested for one week prior to PNL.” for “femur.”

HaCat cells = experiment: CellTiter-Glo cell viability of Poly IC induced HaCat cells; assay type: cell-based, human; conditions: Poly IC 50 μg/ml 24 hours, 100 μg/ml pretreatment
Protocol: as §3, §4

C57BL/6J mice = experiment: Neuropathic pain model, partial nerve ligation (PNL), tactile allodynia (von Frey); assay type: in vivo
Protocol: as §1, with “femur. The sciatic nerve was exposed at mid-thigh level by separating the biceps femoris and the gluteus superficialis and then carefully cleared of surrounding connective tissue. A 9-0 nylon suture (Ethicon, Inc., Somerville, NJ, USA) was inserted into the nerve and ligated so that the one-third to one-half of the nerve was included. The muscle and skin layers were closed using Reflex7 7 mm stainless steel wound clips (CellPoint Scientific, Inc., Gaithersburg, MD, USA). For behavior testing, mice were acclimated, and baseline tested for one week prior to PNL.” for “femur.”

Structure (SMILES): CCCC[C@H](NC(=O)[C@H](CC(C)C)NC(=O)[C@H](Cc1ccccc1)NC(=O)[C@@H](NC(=O)[C@H](Cc1ccccc1)NC(=O)[C@@H]1CCCN1C(=O)[C@H](CCCCN)NC(=O)[C@H](CC(N)=O)NC(=O)[C@H](Cc1ccccc1)NC(=O)[C@H](CCCCN)NC(=O)[C@@H](NC(C)=O)C(C)C)C(C)C)C(=O)N[C@H](C(=O)N[C@@H](CCC(=O)O)C(=O)N[C@@H](CCC(N)=O)C(=O)N[C@@H](CC(N)=O)C(=O)N[C@H](C(=O)N[C@@H](CCCCN)C(N)=O)[C@@H](C)O)[C@@H](C)CC [SP163M, Ac-VKFNKPFVFLNIeIEQNTK-NH2]
- TLR4 upregulation in injured sciatic nerve (densitometry) (TLR4): completely blocked the upregulation of TLR4
- TSLP in supernatant (TSLP): a decrease of both TSLP
- reduction of CD11b levels in injured sciatic nerve (densitometry) (CD11b [1]): 10 fold
- safety and tolerability [2]: safe and well tolerated
- licking time, early phase (0-10 min) (C57BL6 mice; 0.02 μg/g s.c. 1 h before 2.5% formalin): 80 s
- AUC of licking time, late phase (C57BL6 mice; 0.02 μg/g vs vehicle, Tukey's post hoc test): p=ns
- licking time, early phase (0-10 min) (C57BL6 mice; 2 μg/g s.c. 1 h before 2.5% formalin): 60 s
- peak late phase start time (C57BL6 mice; 2 μg/g, vehicle peak after 25 min): 30 min
- AUC of licking time, late phase (15-50 min) (C57BL6 mice; 0.2 and 2 μg/g vs vehicle): both middle (0.2 μg/g) and high (2 μg/g) doses reduced licking time in the late phase compared to vehicle controls
- AUC of licking time, early phase (C57BL6 mice; low (0.02 μg/g) and high (2 μg/g) dose vs vehicle): both the low and high SP163M treatment groups reached statistical significance
- CD11b levels in DRGs relative to vehicle-treated DRGs (CD11b [3]): approximately five-fold
- cell viability (HaCat cells): an increase in cell viability
- development of mechanical hypersensitivity (tactile allodynia, PWT) (C57BL/6J mice; 2 μg/g s.c. 1 h before PNL, then daily for two weeks): did not develop mechanical hypersensitivity
- day post injury up to which anti-allodynic effects were sustained (C57BL/6J mice; 2 μg/g s.c. daily): 9 days
